Measurements from patent publication US10125358B2, “Methods and compounds for increasing threonyl-tRNA synthetase activity” (UNIVERSITY OF VERMONT AND STATE AGRICULTURAL COLLEGE, priority 2012, dated 2018).

Test system: HUVEC
Experiment: Lactate dehydrogenase membrane integrity assay (CytoTox-ONE)
Details: HUVECs treated with 50 ng/ml, 6 h and 16 h

VEGF
cell lysis / cytotoxicity (LDH): not due to cell lysis
